{"source": "paper PMC4660513", "about": "(Pharmacognosy Research, 2015)", "origin": "cited, not measured here", "settings": "cited from earlier work", "note": "Several values for one entry are separate records, joined by “and”; a condition that tells them apart may be missing. Equal entries are not always repeated. Where two headings read alike, the source gives them in different places."}
{"substance": "buprenorphine hydrochloride", "values": [{"measurement": "mean plasma concentration", "setting": "single intravenous dose (1.2 mg)", "value": "37.52 ng/ml and 0.08 μM"}, {"measurement": "mean plasma concentration", "setting": "single sublingual dose (16 mg)", "value": "6.3 ng/ml and 0.012 μM"}]}
